Conditions: SN-38 exposure, versus irinotecan

With “Pentaerythritolyl-4-Arm-(PEG-1-Methylene-2 Oxo-Vinylamino Acetate linked-Irinotecan)-20K” the “maximal concentrations compared to irinotecan” value was “five- to ten-times less”.

— patent US10132810B2, “Method for assessing and predicting efficacy of breast cancer treatment with a long-acting topoisomerase I inhibitor” (priority 2012, dated 2018)
